Yeast mating assay B: variants of the scFv Ab-14

Reference: Li et al. 2023, doi:10.1038/s41467-023-39022-2. File: FLAb, binding data.

Target peptide (SARS-CoV-2 spike, HR2 region): PDVDLGDISGINAS

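The variants were designed computationally from a first round of random CDR variants and then made and measured. Group labels follow the data file (Ctrl: baseline library sampled from a position-specific scoring matrix, with some repeated check sequences; Rand: our label for a block that the file lists under HC and that is probably the random mutants of the ten best first-round binders; En: ensemble of fine-tuned language models; GP: Gaussian process model; HC: hill climbing; Gen: genetic algorithm; Gibbs: Gibbs sampling; a sequence that several methods proposed may carry one label only). In AlphaSeq, yeast of one mating type display the scFv and yeast of the other type display the target. After mating in shaken culture at 30 °C for 16 h, diploids were selected and their barcode pairs sequenced. Read counts were normalised to the haploid input and turned into Kd by a linear fit to BCL2-family pairs of known affinity, for each replicate. There are six technical replicates.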

Ab-14 is the parent antibody, in scFv form: VH, then a 15-residue (Gly4Ser)3 linker, then VL. The heavy chain is unchanged in all variants.
VH: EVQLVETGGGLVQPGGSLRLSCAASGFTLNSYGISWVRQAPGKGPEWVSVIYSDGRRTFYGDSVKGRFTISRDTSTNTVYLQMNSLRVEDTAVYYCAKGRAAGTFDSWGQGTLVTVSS
VL: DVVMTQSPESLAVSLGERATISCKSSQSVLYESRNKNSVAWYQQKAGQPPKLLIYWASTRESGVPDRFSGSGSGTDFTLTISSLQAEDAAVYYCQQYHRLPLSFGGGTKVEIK

Each variant is given by its three light chain CDRs, as the data file delimits them; those of the parent are KSSQSVLYESRNKNSVA, WASTRES, QQYHRLPLS.
The read-out is the apparent dissociation constant on a log10 scale (nM): the lower, the stronger.
Replicates are averaged; those with no signal do not enter the mean.
"nd" means that the variant was in the library but no mating with the target was seen in any replicate; the authors take this as a sign of poor binding, and no number exists.
In the paper, a design with two or fewer of six values counts as a poor binder.
Empty control strains, which show no peptide, gave a signal in 4% of pairings with all light chain designs; the median was 2.64 and 95% of these signals were weaker than 1.59. No background was subtracted. The control count says in how many pairings with the empty strains this scFv gave a signal.
Of ten entries with the parent sequence, four were seen in most replicates (averages 0.34 to 2.37), three in one and three in none, so single entries are noisy.
Values of this round are not directly comparable with the first-round values of the same sequences.

Variant MISQVMNTLTRNGNNVA, DLQEREH, QQYFRLPLS [En_Gen] gave 1.05 (6 of 6 replicates; controls 1 of 18).
Variant HITMGMYVHGRYKSNIA, QAETRMK, QQYDRLPLM [En_Gen] gave 1.23 (6 of 6 replicates; controls 1 of 18).
Variant KLMQSWLYESRNKNSVA, NASQRES, QDYHRLPLS [GP_Gen] gave -0.20 (6 of 6 replicates; controls 0 of 18).
Variant KYYPSYLYESRNKNSVA, NASTRES, QQYHLLPLS [GP_HC] gave 0.35 (6 of 6 replicates; controls 2 of 18).
Variant KFSQSVWDESRNKNSVA, WASTRES, QQYHRLPLS [Ctrl] gave 1.32 (6 of 6 replicates; controls 2 of 18).
Variant KSSQPVLYESRNKNSVA, WASTRES, QQYHRDPLS [Ctrl] gave nd (0 of 6 replicates; controls 0 of 18).
Variant KSSQSRLYESRNKNSVA, WASTRES, QQYHRLPLS [Ctrl] gave 1.40 (2 of 6 replicates; controls 0 of 18).
Variant KRQQSVTYESRNKNSVA, WASTRES, QQYHRLPLS [Ctrl] gave nd (0 of 6 replicates; controls 0 of 18).
Variant KFSQSVLYESRTKNSVA, NAVTREM, QQYHRLPLS [GP_HC] gave -0.44 (6 of 6 replicates; controls 0 of 18).
Variant KYAQSMLYESRNFNNVA, EASTRES, QQYHRLPLS [GP_Gibbs] gave 1.48 (5 of 6 replicates; controls 0 of 18).
Variant HVSMLTLQGMRHTNSVA, QMTTREN, QQYDRLPLA [En_Gen] gave 0.52 (6 of 6 replicates; controls 1 of 18).
Variant HMSALTLQGMRQRNSVA, QMTTREN, QQYDHLPLA [En_Gen] gave 0.78 (6 of 6 replicates; controls 0 of 18).
Variant KSSQSVLYESRNKNSVA, WASTRES, QQIHRLPLS [Ctrl] gave nd (0 of 6 replicates; controls 0 of 18).
Variant MISDLTMYGSRNKNSVA, DLSTRGS, QQYHRLPFS [En_HC] gave 0.30 (6 of 6 replicates; controls 0 of 18).
Variant KLYQSHLYESRNKNAVA, NASTRES, QQYHRLPLS [GP_Gen] gave 0.43 (6 of 6 replicates; controls 3 of 18).
Variant KLSQSDLYESRNKNSVA, NASQREV, QQYHRLPLS [GP_Gen] gave -0.16 (6 of 6 replicates; controls 0 of 18).
Variant TLLYGPTEARKDKHNIA, DMSEREE, QQYHLLPLI [En_Gibbs] gave 1.07 (6 of 6 replicates; controls 0 of 18).
Variant NLGFEDANDNRGMMAVA, DVNTVGE, QQYNRLPLA [En_Gibbs] gave 0.77 (3 of 6 replicates; controls 0 of 18).
Variant SMGYALFHEDAKAKSIA, ENDVRVY, QQYAKLPLT [En_Gibbs] gave 1.23 (6 of 6 replicates; controls 1 of 18).
Variant TISQSFLMENQFKNSVA, QASTREE, QCYDRLPLS [En_HC] gave 3.92 (2 of 6 replicates; controls 1 of 18).
Variant HVSESIFAQSKMRNSVA, ENETRES, QQYDRLPLS [En_HC] gave 2.73 (6 of 6 replicates; controls 3 of 18).
Variant KESQSEPGESRNKNSVA, NAMQRMS, QQYHRLPLS [GP_Gibbs] gave 0.53 (6 of 6 replicates; controls 2 of 18).
Variant HITYGMYVSGRYKSNIA, QAETRES, QQYDRLPLI [En_Gen] gave 0.93 (6 of 6 replicates; controls 1 of 18).
Variant HLYQSQLYESRNKNSVA, NASTRLH, QQYHRLPLS [GP_Gibbs] gave 0.49 (6 of 6 replicates; controls 1 of 18).
Variant KSSHSVLGESSNKNSVA, WASTRES, QQYHRLPLS [Ctrl] gave 0.73 (6 of 6 replicates; controls 0 of 18).
Variant KQSQSVLYESRNKNSVA, DASTRES, QQYHRLMLS [Rand] gave -0.44 (6 of 6 replicates; controls 2 of 18).
Variant KLRMLTHIESFNKNNVA, EMTTRES, QSYDRLPLS [En_HC] gave 0.07 (6 of 6 replicates; controls 2 of 18).
Variant HSSPSVEYESRNKNSVA, NASKRES, QQYHRLPLS [GP_HC] gave nd (0 of 6 replicates; controls 0 of 18).
Variant KVSISGLYESRNKNSVA, EASTRES, QQYHRLPLS [GP_HC] gave -0.30 (6 of 6 replicates; controls 1 of 18).
Variant KVSQSMLIESRNSNSVA, NASTREH, QQYHRLPLS [GP_Gibbs] gave 1.16 (6 of 6 replicates; controls 0 of 18).